Here are results for three compounds from the Kinase Knowledgebase extract (Sharma et al. 2016).

By UniProt entry, the sequences of proteins in these tests, tags left out.
UniProt Q16539, whole entry, looked up: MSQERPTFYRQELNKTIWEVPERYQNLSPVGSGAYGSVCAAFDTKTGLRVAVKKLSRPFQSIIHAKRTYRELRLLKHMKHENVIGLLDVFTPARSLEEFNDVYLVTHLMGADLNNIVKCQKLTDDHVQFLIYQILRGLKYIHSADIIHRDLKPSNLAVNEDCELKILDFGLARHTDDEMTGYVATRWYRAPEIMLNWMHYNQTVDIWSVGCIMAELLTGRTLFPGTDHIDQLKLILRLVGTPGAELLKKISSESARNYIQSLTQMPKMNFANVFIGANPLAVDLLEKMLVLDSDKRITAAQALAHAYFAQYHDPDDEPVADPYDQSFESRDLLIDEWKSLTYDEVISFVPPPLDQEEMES

The term IC50 denotes the midpoint of a concentration-inhibition curve.

In this test the target is MAPK14 (human) (UniProt Q16539). The experiment in a line: Inhibition of MAPK14 Kinase Activity.
In turn, `CC(C)(C)Cn1c(N)nc2ccc(-c3[nH]c(-c4c(F)cccc4Cl)nc3-c3ccccc3)nc21` came in with an IC50 of 3.2 nM. This lies in the single-digit nanomolar range.

Consider `CC(C)Cn1c(N)nc2ccc(-c3[nH]c(-c4c(Cl)cccc4Cl)nc3-c3ccc(F)cc3F)nc21`, for which the IC50 was found to be 3.9 nM.

The compound `CC(C)Cn1c(N)nc2ccc(-c3[nH]c(C(C)(C)C)nc3-c3ccc(F)cc3F)nc21` registered an IC50 of 3.9 nM.
